Results from patent US20130143965A1, “MICROBI[…] AND STABLE SOLUTIONS OF GAMMA-HYDRO[…] FOR THE TREATMENT OF NARCOLEPSY” (Jazz Pharmaceuticals, Inc., priority 1998, published 2013).

Test: Solubility of sodium oxybate (GHB) in aqueous solution versus pH
Details: at about pH 4

SMILES: O=C(O)CCCO [Sodium Oxybate, sodium oxybate]
- maximum amount of sodium-GHB that can be dissolved: about 450 mg/ml
